Values quoted from earlier work in patent publication US20180296561A1, “The Methods For Treatment Of Tumors” (The University of North Carolina at Chapel Hill, priority 2015, published 2018).

Sequences of proteins named here, by UniProt entry; tags and fusion partners are left off. Residues count along the entry.
UniProt P36888, 27-993: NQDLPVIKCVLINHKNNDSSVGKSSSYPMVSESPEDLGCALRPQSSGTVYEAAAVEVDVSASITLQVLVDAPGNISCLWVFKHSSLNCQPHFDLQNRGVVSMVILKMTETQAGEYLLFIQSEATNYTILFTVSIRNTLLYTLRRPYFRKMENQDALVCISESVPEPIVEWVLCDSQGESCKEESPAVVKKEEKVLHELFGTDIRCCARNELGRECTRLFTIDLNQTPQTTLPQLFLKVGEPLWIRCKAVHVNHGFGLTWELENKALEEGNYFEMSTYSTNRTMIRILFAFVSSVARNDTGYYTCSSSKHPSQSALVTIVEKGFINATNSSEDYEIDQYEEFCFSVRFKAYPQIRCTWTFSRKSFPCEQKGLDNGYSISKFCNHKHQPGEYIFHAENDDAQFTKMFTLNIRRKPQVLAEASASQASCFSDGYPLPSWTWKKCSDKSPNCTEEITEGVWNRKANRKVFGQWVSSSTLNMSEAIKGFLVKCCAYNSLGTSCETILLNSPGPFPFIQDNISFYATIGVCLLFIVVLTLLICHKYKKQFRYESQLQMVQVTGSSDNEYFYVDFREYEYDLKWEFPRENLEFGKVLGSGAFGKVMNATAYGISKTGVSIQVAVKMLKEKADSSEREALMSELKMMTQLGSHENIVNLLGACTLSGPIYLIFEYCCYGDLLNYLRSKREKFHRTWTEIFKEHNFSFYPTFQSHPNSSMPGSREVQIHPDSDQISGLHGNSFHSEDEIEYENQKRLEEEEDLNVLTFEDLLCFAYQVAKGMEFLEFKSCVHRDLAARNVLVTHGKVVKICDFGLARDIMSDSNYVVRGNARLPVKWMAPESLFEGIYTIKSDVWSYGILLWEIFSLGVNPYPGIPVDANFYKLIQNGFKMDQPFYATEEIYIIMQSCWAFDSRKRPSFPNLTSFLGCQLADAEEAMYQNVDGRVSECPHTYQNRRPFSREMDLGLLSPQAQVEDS

Target: FLT3 (Homo sapiens, UniProt P36888)
Conditions: cited from earlier work

In the case of CCCCNc1ncc2c(-c3ccc(CN4CCN(C)CC4)cc3)cn(C3CCC(O)CC3)c2n1 (stereo not shown) [UNC2025A], the “inhibitory activity against FLT3” value is listed as “dual inhibitory activity”.
